# Apparent affinities of Ab-14 variants for a coronavirus HR2 peptide

Data: MIT Lincoln Laboratory AlphaSeq set, Engelhart et al. 2022, doi:10.1038/s41597-022-01779-4, as distributed in FLAb.

The target is the same throughout: PDVDLGDISGINAS, from the HR2 region of SARS-CoV-2 spike.

The variants keep the heavy chain, the linker and the frameworks of Ab-14 (scFv order VH, the linker GGGGSGGGGSGGGGS, VL).
VH: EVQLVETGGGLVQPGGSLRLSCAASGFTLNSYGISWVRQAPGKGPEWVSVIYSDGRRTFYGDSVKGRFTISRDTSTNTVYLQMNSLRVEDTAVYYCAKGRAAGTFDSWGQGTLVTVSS
VL: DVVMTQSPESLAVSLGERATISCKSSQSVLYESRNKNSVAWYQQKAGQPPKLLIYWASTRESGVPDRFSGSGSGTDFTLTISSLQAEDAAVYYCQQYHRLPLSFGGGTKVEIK

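Phage display of a naive human antibody library on the peptide gave the parent. In library AAYL50, one, two or three CDR residues were substituted; doubles and triples were drawn at random. The scFvs were displayed on barcoded MATa yeast, the peptide on MATalpha yeast. The frequency of each diploid, read from paired DNA barcodes, reflects how well the two displayed proteins bind. The ratio of observed to expected reads was calibrated, replicate by replicate, on BCL2-family standards whose Kd was known from biolayer interferometry. The assay was run in three technical replicates.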

Sequences are complete VL domains. Values are apparent Kd, the geometric mean of the replicates that gave a signal; lower means stronger binding. "no signal" marks a missing value. The strain was present, yet no cells mated with the target were sequenced in any replicate, which points to weak or no binding. Parent in this assay: reference entry 4.4 nM, copy in this library 48 nM.

{"VL": "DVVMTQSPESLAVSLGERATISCKCSQSVLYESSNKNSVAWYQQKAGQPPKLLIYWASTRESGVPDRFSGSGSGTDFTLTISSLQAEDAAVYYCQQYHRLPLSFGGGTKVEIK", "Kd": "4.5 nM", "detected": "3 of 3"}
{"VL": "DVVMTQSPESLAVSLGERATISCKSSISVLYESRNKRSVAWYQQKAGQPPKLLIYWVSTRESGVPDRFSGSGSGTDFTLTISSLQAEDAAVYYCQQYHRLPLSFGGGTKVEIK", "Kd": "9.8 µM", "detected": "3 of 3"}
{"VL": "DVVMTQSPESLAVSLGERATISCKSSQSMLYESRQKNSVEWYQQKAGQPPKLLIYWASTRESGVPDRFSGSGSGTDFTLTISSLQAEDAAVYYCQQYHRLPLSFGGGTKVEIK", "Kd": "no signal", "detected": "0 of 3"}
{"VL": "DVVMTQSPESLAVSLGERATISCKSSQSVLYESGSKNSVAWYQQKAGQPPKLLIYWASTRELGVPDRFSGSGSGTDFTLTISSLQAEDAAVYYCQQYHRLPLSFGGGTKVEIK", "Kd": "6.3 nM", "detected": "3 of 3"}
{"VL": "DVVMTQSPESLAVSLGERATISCKSSQQVLYESDNKNSVAWYQQKAGQPPKLLIYWASTRESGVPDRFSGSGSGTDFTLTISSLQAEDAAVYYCQQYHRLPTSFGGGTKVEIK", "Kd": "no signal", "detected": "0 of 3"}
{"VL": "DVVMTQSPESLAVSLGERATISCCSSQSVLYESRNKNSVAWYQQKAGQPPKLLIYWASTRESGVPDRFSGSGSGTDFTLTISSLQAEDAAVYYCQQYPRLPLIFGGGTKVEIK", "Kd": "140 nM", "detected": "3 of 3"}
{"VL": "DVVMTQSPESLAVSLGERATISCKFSQSVLYECRNKNSVAWYQQKAGQPPKLLIYWASTRESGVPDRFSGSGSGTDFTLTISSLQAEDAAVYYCQQYHSLPLSFGGGTKVEIK", "Kd": "79 nM", "detected": "3 of 3"}
{"VL": "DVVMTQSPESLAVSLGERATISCKSSQSVLYEDRNKNSVAWYQQKAGQPPKLLIYWASTRESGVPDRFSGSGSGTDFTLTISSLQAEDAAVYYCQQYARLYLSFGGGTKVEIK", "Kd": "14 µM", "detected": "2 of 3"}
{"VL": "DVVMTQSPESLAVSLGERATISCKSSQSVLYESRNKNHVAWYQQKAGQPPKLLIYWASTRESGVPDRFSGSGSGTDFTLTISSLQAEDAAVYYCQQYWILPLSFGGGTKVEIK", "Kd": "690 nM", "detected": "1 of 3"}
{"VL": "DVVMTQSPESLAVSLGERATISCCSKQSVLYESRNKNSVAWYQQKAGQPPKLLIYWASTRESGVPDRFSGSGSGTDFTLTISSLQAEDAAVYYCQQYERLPLSFGGGTKVEIK", "Kd": "84 nM", "detected": "2 of 3"}
{"VL": "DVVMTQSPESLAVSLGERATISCKSGQSVLYESRVKNSVAWYQQKAGQPPKLLIYWASTAESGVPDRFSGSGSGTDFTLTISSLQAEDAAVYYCQQYHRLPLSFGGGTKVEIK", "Kd": "210 µM", "detected": "2 of 3"}
{"VL": "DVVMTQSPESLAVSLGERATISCSSSQSVTNESRNKNSVAWYQQKAGQPPKLLIYWASTRESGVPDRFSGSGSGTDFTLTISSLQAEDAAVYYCQQYHRLPLSFGGGTKVEIK", "Kd": "9.9 nM", "detected": "3 of 3"}
{"VL": "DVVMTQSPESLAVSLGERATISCKSSQSVLYMSRNKNSVAWYQQKAGQPPKLLIYWASTRESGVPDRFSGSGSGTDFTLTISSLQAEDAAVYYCQQYHRWPLSFGGGTKVEIK", "Kd": "no signal", "detected": "0 of 3"}
{"VL": "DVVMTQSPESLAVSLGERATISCKSSQSVWYESRNKNSVAWYQQKAGQPPKLLIYWCSTRESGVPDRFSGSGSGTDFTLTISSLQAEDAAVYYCQQYHRLPFSFGGGTKVEIK", "Kd": "130 nM", "detected": "3 of 3"}
{"VL": "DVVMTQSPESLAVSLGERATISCKSSQSVLYESRNKNSVAWYQQKAGQPPKLLIYDASTRESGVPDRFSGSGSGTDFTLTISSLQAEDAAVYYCQQYNRLPDSFGGGTKVEIK", "Kd": "8.3 µM", "detected": "1 of 3"}

A selection of 2 entries from above:

VL,Kd,detected
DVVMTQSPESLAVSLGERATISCKFSQSVLYECRNKNSVAWYQQKAGQPPKLLIYWASTRESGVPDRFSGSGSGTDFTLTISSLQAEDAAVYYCQQYHSLPLSFGGGTKVEIK,79 nM,3 of 3
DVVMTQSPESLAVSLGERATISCKCSQSVLYESSNKNSVAWYQQKAGQPPKLLIYWASTRESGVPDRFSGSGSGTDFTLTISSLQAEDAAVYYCQQYHRLPLSFGGGTKVEIK,4.5 nM,3 of 3

Background: pairings of library AAYL50 with three empty control strains gave a value in 18% of cases (median 15 µM, 5th percentile 970 nM). Values in that range, when seen in few replicates, are hard to tell from nonspecific mating.